The values below come from ChEMBL document CHEMBL1138243, “Design of mechanism-based inhibitors of transthyretin amyloidosis: studies with biphenyl ethers and new structural templates” (J Med Chem, 2007).

The target of this experiment is Transthyretin (Homo sapiens, UniProt P02766). Briefly: Inhibition of transthyretin fibril formation at pH 4.4 at 50 uM. In kind it is functional. On the set-up: scale not given: the % may be the effect or the level left.

`OCc1ccc(Oc2ccccc2)c(O)c1` returned an Activity of 70%.
